This passage reports TIME and Ratio IC50 results from ChEMBL document CHEMBL4321874, “Discovery of a Novel, Highly Potent, and Selective Thieno[3,2-d]pyrimidinone-Based Cdc7 Inhibitor with a Quinuclidine Moiety (TAK-931) as an Orally Active Investigational Antitumor Agent” (J Med Chem, 2020).

By UniProt entry, the sequences of proteins in these tests, tags left out. Where a name states a change or a piece, a line headed by the entry shows the natural chain unless it says otherwise.
UniProt O00311: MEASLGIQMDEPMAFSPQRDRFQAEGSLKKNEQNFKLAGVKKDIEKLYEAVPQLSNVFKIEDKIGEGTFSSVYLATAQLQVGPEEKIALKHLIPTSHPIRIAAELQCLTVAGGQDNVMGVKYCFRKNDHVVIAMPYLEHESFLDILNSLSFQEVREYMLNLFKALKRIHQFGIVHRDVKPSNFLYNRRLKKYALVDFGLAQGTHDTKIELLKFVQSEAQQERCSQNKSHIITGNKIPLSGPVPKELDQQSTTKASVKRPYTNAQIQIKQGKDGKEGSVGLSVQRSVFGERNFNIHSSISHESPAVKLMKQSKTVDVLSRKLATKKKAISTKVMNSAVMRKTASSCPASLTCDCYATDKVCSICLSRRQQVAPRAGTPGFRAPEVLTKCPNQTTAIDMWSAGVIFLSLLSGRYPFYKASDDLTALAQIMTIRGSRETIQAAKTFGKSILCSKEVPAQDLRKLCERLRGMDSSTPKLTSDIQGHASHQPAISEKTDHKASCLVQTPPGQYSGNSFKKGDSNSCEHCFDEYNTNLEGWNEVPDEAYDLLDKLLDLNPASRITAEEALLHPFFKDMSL

SMILES strings stand for the structures.

For test [1], the target named is T1, Cell division cycle 7-related protein kinase (Homo sapiens, UniProt O00311). Description: Inhibition of ATP-specific reporter probe binding to CDC7 (unknown origin) assessed as residence time incubated for 60 mins by proteros reporter displacement assay.
The target in test [2] is T1, Cell division cycle 7-related protein kinase. The test is described as follows: Binding affinity to CDC7 (unknown origin) assessed as residence time.
The species entered for another test is Homo sapiens. Description: Selectivity ratio of IC50 for recombinant full-length human GST-tagged DYRK1A expressed in baculovirus expression system to IC50 for N-terminal GST-fused full-length human CDC7 (1 to 574 end residues)/DBF4 (1 to 674 residues) expressed in baculovirus expression system.

Take `Cc1n[nH]cc1-c1cc2nc(CN3CCCC3)[nH]c(=O)c2s1`: the TIME in test [1] came out at 0.567 h.

With `Cc1n[nH]cc1-c1cc2nc([C@@H]3CC4CCN3CC4)[nH]c(=O)c2s1` [SIMUROSERTIB], in test [2], the TIME amounted to 0.433 h.

As for `Cc1n[nH]cc1-c1cc2nc([C@@H]3CCCCN3)[nH]c(=O)c2s1`, the Ratio IC50 in the test filed under Homo sapiens turned out to be 134. Further, the TIME in test [1] came out at 0.433 h.
